Measured values from patent US12128173B2, “Dry powder drug delivery system and methods” (MannKind Corporation, priority 2012, dated 2024).

Test: FDKP pharmacokinetics after inhalation, DPI 1 vs MEDTONE (Example 8)
Conditions: for AVG mean AUC fdkp per emitted fdkp mass: Part 3, DPI 1, 10 mg

O=C(O)/C=C/C(=O)NCCCCC1NC(=O)C(CCCCNC(=O)/C=C/C(=O)O)NC1=O (stereo not shown) [FDKP, 3,6-bis(N-fumaryl-4-aminobutyl)-2,5-diketopiperazine]
increase of FDKP plasma AUC over MEDTONE (FDKP 10 mg, DPI 1): ~2 fold | Mean Cmax (MEDTONE 10 mg, inhaled): 95 ng/mL | AVG mean AUC fdkp per emitted fdkp mass (easy inhalation effort): 3925 ng*min/mL*mg fdkp | AVG mean AUC fdkp per emitted fdkp mass (hard inhalation effort): 3867 ng*min/mL*mg fdkp
